We go through 5 substances from paper PMC4931022, “Arginine demethylation is catalysed by a subset of JmjC histone lysine demethylases” (Nature Communications, 2016).

Amino acid sequences for entries named in this document (tags omitted). Residues count along the entry.
UniProt O15054, 1141-1590 limits assumed: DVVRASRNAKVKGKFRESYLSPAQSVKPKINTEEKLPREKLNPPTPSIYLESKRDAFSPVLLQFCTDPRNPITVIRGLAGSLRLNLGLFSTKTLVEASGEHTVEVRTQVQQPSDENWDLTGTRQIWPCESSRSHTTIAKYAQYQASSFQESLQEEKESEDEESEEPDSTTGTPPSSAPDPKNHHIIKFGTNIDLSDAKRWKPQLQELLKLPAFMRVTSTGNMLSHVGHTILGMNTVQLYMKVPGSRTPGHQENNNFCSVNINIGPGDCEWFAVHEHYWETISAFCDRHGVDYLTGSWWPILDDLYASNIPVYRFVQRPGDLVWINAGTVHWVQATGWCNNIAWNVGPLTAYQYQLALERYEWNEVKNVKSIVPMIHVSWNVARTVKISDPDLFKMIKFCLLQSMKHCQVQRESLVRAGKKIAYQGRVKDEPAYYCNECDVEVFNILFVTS

Holding throughout (assay type): biochemical
The target of test [1] is T1, KDM3A (Homo sapiens, UniProt Q9Y4C1).
T1 construct: KDM3A515–1,317; His6 (N); made in house; host or cells: Sf9 cells
T1 sequence (Q9Y4C1 515-1317 limits assumed): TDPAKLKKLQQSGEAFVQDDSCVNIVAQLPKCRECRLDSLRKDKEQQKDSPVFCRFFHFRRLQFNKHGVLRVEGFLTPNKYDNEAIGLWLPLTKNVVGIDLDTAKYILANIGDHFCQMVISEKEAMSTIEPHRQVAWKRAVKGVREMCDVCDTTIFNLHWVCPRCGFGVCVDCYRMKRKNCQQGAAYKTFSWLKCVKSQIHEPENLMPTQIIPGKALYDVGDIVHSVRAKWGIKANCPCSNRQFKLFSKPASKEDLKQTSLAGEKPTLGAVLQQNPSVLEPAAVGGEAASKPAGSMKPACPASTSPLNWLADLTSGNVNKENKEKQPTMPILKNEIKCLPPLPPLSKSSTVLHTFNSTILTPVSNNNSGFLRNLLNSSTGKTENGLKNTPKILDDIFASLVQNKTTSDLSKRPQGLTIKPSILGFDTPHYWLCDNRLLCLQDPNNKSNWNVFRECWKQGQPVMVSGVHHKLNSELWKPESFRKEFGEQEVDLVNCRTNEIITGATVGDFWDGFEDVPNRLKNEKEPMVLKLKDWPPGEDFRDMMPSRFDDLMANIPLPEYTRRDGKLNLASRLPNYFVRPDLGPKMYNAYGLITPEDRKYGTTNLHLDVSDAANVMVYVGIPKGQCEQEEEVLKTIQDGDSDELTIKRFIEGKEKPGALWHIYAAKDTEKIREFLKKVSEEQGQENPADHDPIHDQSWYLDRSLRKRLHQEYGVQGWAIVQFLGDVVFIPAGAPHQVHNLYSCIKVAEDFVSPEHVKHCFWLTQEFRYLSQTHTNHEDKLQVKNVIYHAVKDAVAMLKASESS
Nature of the test: MALDI MS activity assay, recombinant KDM3A catalytic domain. The conditions noted are these: KDM3A 2 μM, peptide 10 μM, 1 h, 37 °C, 2OG 100 μM, ascorbate 100 μM, Fe(II) 50 μM, 50 mM HEPES pH 7.5; MALDI-TOF MS, −14 Da shift. More on the design: key: + indicates demethylation activity; − indicates no activity or that below our limits of detection. How it is done:
(§1) MALDI MS activity assays. Recombinant proteins (2 μM) were incubated with peptides (10 μM, sequences are given in Supplementary Table 1) and cofactors/substrates for 1 h at 37 °C, unless otherwise specified. Reactions were quenched with 1:1 (v/v) methanol and analysed with MALDI MS. Assay conditions for each enzyme are given in Supplementary Table 2. Negative controls without enzyme were included. Note that in some cases small variations (≤2 Da) in the absolute experimentally observed values compared with the calculated values for peptides were observed. However, in all cases where demethylation is assigned the mass shift was 14 Da.
(§2) Supplementary Table 2 Assay conditions with truncated recombinant protein.
(§3) Enzyme [2OG] / µM [Ascorbate] / µM [FeII] / µM Buffer Conditions
(§4) Supplementary Table 3 Assay conditions with full length Flag-tagged KDMs.
(§5) Enzyme [2OG] / mM [Ascorbate] / mM [FeII] / µM Buffer Conditions

Test [2] addresses T2, KDM4E (Homo sapiens, UniProt B2RXH2).
T2 construct: His6 (N); made in house; host or cells: Escherichia coli
T2 sequence (B2RXH2 1-337): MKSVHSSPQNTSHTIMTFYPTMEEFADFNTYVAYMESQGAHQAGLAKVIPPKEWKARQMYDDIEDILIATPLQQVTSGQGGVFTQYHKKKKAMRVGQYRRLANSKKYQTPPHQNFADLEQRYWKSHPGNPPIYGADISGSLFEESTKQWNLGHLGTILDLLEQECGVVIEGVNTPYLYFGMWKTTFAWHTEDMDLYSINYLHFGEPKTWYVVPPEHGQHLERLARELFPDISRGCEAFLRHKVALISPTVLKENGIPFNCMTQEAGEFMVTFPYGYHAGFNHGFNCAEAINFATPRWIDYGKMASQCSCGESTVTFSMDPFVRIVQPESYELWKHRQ
Nature of the test: MALDI MS activity assay, recombinant KDM4E catalytic domain. More on the design: key: + indicates demethylation activity; − indicates no activity or that below our limits of detection. The conditions noted are these: KDM4E 2 μM, peptide 10 μM, 1 h, 37 °C, 2OG 200 μM, ascorbate 100 μM, Fe(II) 10 μM, 50 mM HEPES pH 7.5; MALDI-TOF MS, −14 Da shift. How it is done:
as §1, §2
(§6) Enzyme [2OG] / µM [Ascorbate] / µM [FeII] / µM Buffer Conditions […]
as §5

The next test deals with T3, KDM5C (Homo sapiens, UniProt P41229).
T3 construct: KDM5C1–765 was produced as an N-terminally His6-tagged protein in Sf9 cells; His6 (N); made in house; host or cells: Sf9 cells (provided by the Structural Genomics Consortium)
T3 sequence (P41229 1-765): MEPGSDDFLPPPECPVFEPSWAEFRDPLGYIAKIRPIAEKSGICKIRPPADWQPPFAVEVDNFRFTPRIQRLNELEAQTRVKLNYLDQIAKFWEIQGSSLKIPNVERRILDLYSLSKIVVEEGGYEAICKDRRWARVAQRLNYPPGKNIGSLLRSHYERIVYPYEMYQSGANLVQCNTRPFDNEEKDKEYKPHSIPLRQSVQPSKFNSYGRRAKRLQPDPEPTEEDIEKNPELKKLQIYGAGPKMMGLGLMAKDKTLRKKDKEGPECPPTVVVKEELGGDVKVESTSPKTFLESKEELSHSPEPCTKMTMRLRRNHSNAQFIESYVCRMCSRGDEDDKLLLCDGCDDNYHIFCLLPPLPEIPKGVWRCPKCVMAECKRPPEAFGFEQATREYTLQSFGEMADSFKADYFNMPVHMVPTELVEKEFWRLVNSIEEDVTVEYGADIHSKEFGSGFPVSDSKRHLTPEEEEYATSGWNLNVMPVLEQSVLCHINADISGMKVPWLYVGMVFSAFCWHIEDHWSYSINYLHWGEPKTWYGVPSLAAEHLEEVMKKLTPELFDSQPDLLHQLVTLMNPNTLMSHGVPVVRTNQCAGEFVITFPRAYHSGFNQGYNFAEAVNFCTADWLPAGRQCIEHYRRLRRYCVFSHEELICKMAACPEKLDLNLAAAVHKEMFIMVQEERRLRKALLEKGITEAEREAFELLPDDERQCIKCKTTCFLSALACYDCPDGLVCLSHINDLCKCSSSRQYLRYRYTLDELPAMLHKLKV
Nature of the test: MALDI MS activity assay, recombinant KDM5C catalytic domain. On the set-up: key: + indicates demethylation activity; − indicates no activity or that below our limits of detection. The conditions noted are these: KDM5C 2 μM, peptide 10 μM, 1 h, 37 °C, 2OG 100 μM, ascorbate 100 μM, Fe(II) 10 μM, 50 mM HEPES pH 7.5; MALDI-TOF MS, −14 Da shift. How it is done: as §1, §2, §6, §5

The next test addresses T4, KDM6B (Homo sapiens, UniProt O15054).
T4 construct: His6 (N); made in house; host or cells: Escherichia coli
Nature of the test: MALDI MS activity assay, recombinant KDM6B catalytic domain. On the set-up: key: + indicates demethylation activity; − indicates no activity or that below our limits of detection. The conditions noted are these: KDM6B 2 μM, peptide 10 μM, 1 h, 37 °C, 2OG 100 μM, ascorbate 100 μM, Fe(II) 10 μM, 50 mM HEPES pH 7.5, 150 mM NaCl; MALDI-TOF MS, −14 Da shift. How it is done: as §1, §2, §3, §4, §5

For test [3], the target named is T1, KDM3A. Nature of the test: Formaldehyde dehydrogenase-coupled demethylation assay, KDM3A. How it is done: (§7) Formaldehyde dehydrogenase-coupled assays. Preliminary kinetic parameters were determined by detection of the formaldehyde by-product of the demethylation reaction using a FDH (formaldehyde dehydrogenase-coupled)/NAD^+-coupled assay as previously described. Assays were carried out in buffer (enzyme-dependent) with the addition of Fe(II) ammonium sulfate (10 μM), sodium ascorbate (100 μM), 2OG (200 μM), NAD^+ (500 μM), enzyme (0.2–4 μM) and FDH enzyme (0.025 U per assay, Sigma-Aldrich; total volume 30 μl) and were conducted at 37 °C in clear-bottom black 384-well plates. Reactions were monitored over 25 min using a PHERAstar FS (BMG Labtech) plate reader with 355 nm excitation and 460 nm emission. The Km and Vmax values were calculated from the reaction rate during the linear phase of formaldehyde production, as determined by the slope of the fluorescence signal recorded.

Test [4] deals with T2, KDM4E. Nature of the test: Formaldehyde dehydrogenase-coupled demethylation assay, KDM4E. How it is done:
as §7

[5] abbreviates: calculated using data points below 100 μM, substrate inhibition observed above 100 μM, FDH-coupled assay, 37 °C, mean±s.e.m., n=3.

Regarding “ARTKQTA-Rme2a-KSTGGKA [H3 (1–15) R8me2a, 'natural' histone H3 peptide asymmetrically dimethylated at R8]”, the “observed arginine demethylation activity” value is “−” with KDM3A [1], “+” in the test with KDM4E [2], “+” in the test with KDM5C and “−” in the test with KDM6B.

On to “ARTKQTA-Rme2s-KSTGGKA [H3 (1–15) R8me2s, 'natural' histone H3 peptide symmetrically dimethylated at R8]”, for which the “observed arginine demethylation activity” value is on record as “−” in the test with KDM3A [1], “+” with KDM4E [2], “+” in the test with KDM5C and “−” with KDM6B.

With “ARTKQTA-Rme-KSTGGKA [H3 (1–15) R8me, 'natural' histone H3 peptide monomethylated at R8]”, the “observed arginine demethylation activity” value was “−” in the test with KDM3A [1], “+” in the test with KDM4E [2], “−” in the test with KDM5C and “−” in the test with KDM6B.

A word on the Km: it is the substrate concentration at which the rate is half of its maximum. “ARTKQTAR-Kme2-STGGKA [H3(1-15)K9me2, recognized histone H3 N-methylated-lysine peptide substrate for KDM3A, reference compound]”: the kcat/KM with KDM3A [3] (calculated from the average kcat and KM values, μM^−1 s^−1 for this quantity) is recorded as 7,978.0 × 10^−6. In the test with KDM3A [3] (setting [5]), the Km was 44.5 ± 4.8 µM and the kcat is given as 355±95.3 × 10^−3 s^−1.

Turning to “ARTKQTAR-Kme3-STGGKA [H3(1-15)K9me3, recognized histone H3 N-methylated-lysine peptide substrate for KDM4A/E, reference compound]”, in the test with KDM4E [4] (KDM4E catalytic domain, apparent, preliminary, FDH/NAD+-coupled assay, 37 °C, mean±s.e.m., n=3), the kcat is reported as 170.7±15.2 × 10^−3 s^−1. In addition, the Km with KDM4E [4] (KDM4E catalytic domain, apparent, preliminary, FDH/NAD+-coupled formaldehyde assay, 37 °C, 2OG 200 μM, Fe(II) 10 μM, ascorbate 100 μM, mean±s.e.m., n=3) stood at 17.8 ± 4 µM. Also, the kcat/KM in the test with KDM4E [4] (KDM4E, calculated from the average kcat and KM values, μM^−1 s^−1 for this quantity) is 9,575 × 10^−6.
